{"sequences": {"note": "Chains of the proteins cited; added tags and fusions are not shown. Lines headed by an entry give the natural chain unless they say otherwise; changes in a name come on top.", "UniProt P41145": "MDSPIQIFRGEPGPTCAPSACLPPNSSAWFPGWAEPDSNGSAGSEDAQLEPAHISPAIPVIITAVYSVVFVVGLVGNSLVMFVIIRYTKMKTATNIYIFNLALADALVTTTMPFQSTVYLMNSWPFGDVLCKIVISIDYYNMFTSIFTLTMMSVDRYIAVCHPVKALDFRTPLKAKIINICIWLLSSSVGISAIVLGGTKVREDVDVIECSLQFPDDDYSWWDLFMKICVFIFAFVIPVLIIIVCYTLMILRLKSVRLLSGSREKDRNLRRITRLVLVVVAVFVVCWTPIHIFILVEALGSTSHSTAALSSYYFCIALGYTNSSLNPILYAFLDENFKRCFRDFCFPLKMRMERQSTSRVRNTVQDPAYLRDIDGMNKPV"}, "source": "PubChem BioAssay AID1777", "about": "(Sanford-Burnham Center for Chemical Genomics, 2009)", "note": "This is one part of the list. Results with a measured potency or affinity are listed apart. Activity calls are given as the source filed them. Cut-off read from the data, not from the text of the source: active = activation above about 50% (passing the limit was not always enough); inactive = the rest."}
{"target": "Kappa-type opioid receptor (Homo sapiens) (UniProt P41145)", "assay": "KOR agonists, beta-arrestin recruitment, primary screen, cell-based, luminescence, uHTS (AID 1777)", "details": "at 10 µM, stronger effect = higher value"}
{"smiles": "Cc1ccc(Cn2nnnc2CN2CCC(n3nnc4ccccc43)CC2)cc1", "activation": "inactive: 5.7%"}
{"smiles": "COc1ccc(OC)c(C(=O)CSc2nc3ccccc3n2CC(=O)NC(C)(C)C)c1", "activation": "inactive: -1.3%"}
{"smiles": "O=c1oc2ccccc2c2c1ncn2CCN1CCOCC1", "activation": "inactive: 5.9%"}
{"smiles": "CCN(CC)CCn1c(NS(=O)(=O)c2ccc(Cl)cc2)nc2ccccc21", "activation": "inactive: -1.5%"}
{"smiles": "Cn1c(=O)c2c(nc(CN3CCN(c4ccccc4)CC3)n2CCN2CCOCC2)n(C)c1=O", "activation": "inactive: -0.1%"}
{"smiles": "C[C@H]1OP(=O)(Oc2ccccc2)[C@H](O)[C@H](O)[C@H]1N=[N+]=[N-]", "note": "(stereo partly drawn)", "activation": "inactive: -1%"}
{"smiles": "Cc1cc2ncn(C3CC(=O)N(Cc4ccc(N5CCCC5=O)cc4)C3=O)c2cc1C", "note": "(stereo not drawn)", "activation": "inactive: -0.9%"}
{"smiles": "Cn1c(=O)c2c(ncn2CC(=O)N/N=C/c2c[nH]c3ccccc23)n(C)c1=O", "activation": "inactive: 1.5%"}
{"smiles": "COc1ccccc1OCCSc1nc2ccccc2n1CC(N)=O", "activation": "inactive: 0.5%"}
{"smiles": "Cn1c(=O)c2c(ncn2CC(=O)N2CCOCC2)n(C)c1=O", "activation": "inactive: -1.6%"}
{"smiles": "Cn1c(=O)c2c(ncn2CC(=O)Nc2nc(-c3ccc(F)c(F)c3)cs2)n(C)c1=O", "activation": "inactive: -0.7%"}
{"smiles": "O=P(Nc1nc2ccccc2s1)(c1ccccc1)c1ccccc1", "activation": "inactive: 1.6%"}
{"smiles": "N=c1n(CCN2CCCC2)c2ccccc2n1CC(O)c1ccco1", "note": "(stereo not drawn)", "activation": "inactive: -1.8%"}
{"smiles": "CC(C)N(C(=O)Cn1c(SCC(=O)NC2CC2)nc2ccccc21)C(C)C", "activation": "inactive: 3%"}
{"smiles": "O=C(Cn1c(=O)n(CC(=O)NCc2ccccc2)c2ccccc21)NCc1ccccc1", "activation": "inactive: -8.2%"}
{"smiles": "Cc1ccc2c(c1)C1CN(C)CCC1N2C(=S)NC(=O)c1ccc(Cl)cc1Cl", "note": "(stereo not drawn)", "activation": "inactive: 2.5%"}
{"smiles": "CC(/C=N\\NC(=O)Cn1c(C)nc2ccccc21)=C\\c1ccccc1", "activation": "inactive: -1.2%"}
{"smiles": "Cc1ccc(C)c(Cn2c(=O)c3c(nc4n3CCN4Cc3ccco3)n(C)c2=O)c1", "activation": "inactive: -11.9%"}
{"smiles": "CCCC(=O)Nc1ccc2c(c1)nc1n2CCN(CCOC)C1", "activation": "inactive: 6%"}
{"smiles": "CCC(=O)N1C2C3N(C(=O)CC)C1C1N(C(=O)CC)C(C(N1C(=O)CC)N3C(=O)CC)N2C(=O)CC", "activation": "inactive: -0.1%"}
{"smiles": "O=C(OC1CN2CCC1CC2)c1ccccc1", "note": "(stereo not drawn)", "activation": "inactive: -0.2%"}
{"smiles": "CC(O)CNc1nc2ccccc2n1CC(=O)NC12CC3CC(CC(C3)C1)C2", "note": "(stereo not drawn)", "activation": "inactive: -1.5%"}
{"smiles": "CC1CN(CCn2cnc3c(N)ncnc32)CC(C)O1", "note": "(stereo not drawn)", "activation": "inactive: -1.9%"}
{"smiles": "Cc1ccc2c(c1)C1CN(C)CCC1N2C(=O)c1cccc(S(=O)(=O)N(C)C)c1", "note": "(stereo not drawn)", "activation": "inactive: -3.5%"}
{"smiles": "O=C(CCCCCNC(=O)N1CCn2c1nc1ccccc12)NCc1ccc(F)cc1", "activation": "inactive: -1.5%"}
{"smiles": "O=C1CC(N2CCC(n3c(=O)[nH]c4ccccc43)CC2)C(=O)N1Cc1ccccc1", "note": "(stereo not drawn)", "activation": "inactive: 8.9%"}
{"smiles": "CC(C)N(C(=O)Cn1c(SCC(=O)Nc2nccs2)nc2ccccc21)C(C)C", "activation": "inactive: 1.2%"}
{"smiles": "CC(C)[C@H](NC(=O)N1CCn2c1nc1ccccc12)C(=O)NCCc1ccccc1", "activation": "inactive: -5.4%"}
{"smiles": "CN1CCC(N(C)c2ccc(C(N)=O)cc2[N+](=O)[O-])CC1", "activation": "inactive: 1.9%"}
{"smiles": "Cc1ccc2c(c1)C1CN(C)CCC1N2S(=O)(=O)c1ccccc1", "note": "(stereo not drawn)", "activation": "inactive: 4.5%"}
{"smiles": "CCc1cccc(CC)c1N(COC)C(=O)Cn1c(C(C)O)nc2ccccc21", "note": "(stereo not drawn)", "activation": "inactive: 3.4%"}
{"smiles": "Cn1c(=O)c2c(ncn2CC(=O)Nc2ccccc2N2CCOCC2)n(C)c1=O", "activation": "inactive: -1%"}
{"smiles": "FC(F)(F)c1nc2ccccc2n1CCNc1nc(CN2CCCCC2)cs1", "activation": "inactive: 2.2%"}
{"smiles": "Cc1ccc(OP(=O)(Nc2ccccn2)Oc2ccc(C)cc2)cc1", "activation": "inactive: -3%"}
{"smiles": "CC(=O)NC(SC(=S)N(CC(C)C)CC(C)C)C(Cl)(Cl)Cl", "note": "(stereo not drawn)", "activation": "inactive: -0.4%"}
{"smiles": "Cn1c(=O)c2c(ncn2CC(=O)NC2CCCCC2)n(C)c1=O", "activation": "inactive: 8.2%"}
{"smiles": "COC(=O)c1cc2c(s1)N=C(c1ccccc1)N(C)P2(=O)N1CCOCC1", "note": "(stereo not drawn)", "activation": "inactive: 1.9%"}
{"smiles": "CC(C)NC(=O)Cn1cnc2c1c(=O)n(C)c(=O)n2C", "activation": "inactive: 13.7%"}
{"smiles": "Cc1sc2ncnc(NC3CCN(Cc4ccccc4)CC3)c2c1C", "activation": "inactive: -1.8%"}
{"smiles": "CC(=O)N[C@@H](C)c1nc2ccccc2n1CCNC(=O)[C@H]1CCCN1c1nc(CN2CCCCC2)cs1", "activation": "inactive: 9.2%"}
{"smiles": "CC(/C=N/NC(=O)Cn1cnc2c1c(=O)n(C)c(=O)n2C)=C\\c1ccco1", "activation": "inactive: -0.1%"}
{"smiles": "Cc1ccc(OCCNC(=O)Cn2cnc3c(=O)n(C)c(=O)n(C)c32)cc1C", "activation": "inactive: 3%"}
{"smiles": "CN(C)C(=O)Oc1noc2ccccc12", "activation": "inactive: -4.7%"}
{"smiles": "O=c1c2cc([N+](=O)[O-])ccc2[nH]c2c([N+](=O)[O-])cc([N+](=O)[O-])cc12", "activation": "inactive: -1.7%"}
{"smiles": "CN(C)CCn1cnc2ccccc21", "activation": "inactive: 21%"}
{"smiles": "CCOC(=O)C1=C(Cn2cnc3ccccc32)NC(=O)NC1c1ccc(Cl)cc1", "note": "(stereo not drawn)", "activation": "inactive: -6.3%"}
{"smiles": "Cc1ccccc1OP(=O)(Nc1ccccn1)Oc1ccccc1C", "activation": "inactive: 4.6%"}
{"smiles": "CCc1cccc(C)c1N(C(=O)Cn1c(CO)nc2ccccc21)C(C)COC", "note": "(stereo not drawn)", "activation": "inactive: -3.5%"}
{"smiles": "CC1CCCN(C(=O)Cn2cnc3c2c(=O)n(C)c(=O)n3C)C1", "note": "(stereo not drawn)", "activation": "inactive: -7.1%"}
{"smiles": "Cn1c(=O)c2c(ncn2CC(=O)N2CCN(c3ccccc3)CC2)n(C)c1=O", "activation": "inactive: -2%"}
{"smiles": "COCCN1CCn2c(nc3cc(Nc4nnc(C)c5ccccc45)ccc32)C1", "activation": "inactive: 8.2%"}
{"smiles": "COCCNC(=O)Cn1c(=O)n(C)c2ccccc21", "activation": "inactive: -1.6%"}
{"smiles": "CCOC(=O)NC(Sc1ccccc1)C(Cl)(Cl)Cl", "note": "(stereo not drawn)", "activation": "inactive: 0.3%"}
{"smiles": "Cc1nc2cc(C(F)(F)F)ccc2n1CCNc1nc(-c2cc(Cl)c(N)c(Cl)c2)cs1", "activation": "inactive: -2%"}
{"smiles": "O=c1[nH]c2ccccc2n1C1CCN(CCCC(c2ccc(F)cc2)c2ccc(F)cc2)CC1", "activation": "inactive: -0.1%"}
{"smiles": "Cc1ccc(NP(=O)(Oc2cccc(C)c2)Oc2cccc(C)c2)nc1", "activation": "inactive: 17.4%"}
{"smiles": "CC(C)(C)C(=O)N1CCn2c1nc1ccccc12", "activation": "inactive: -4.6%"}
{"smiles": "Cc1ccc(Cn2c(=O)c3c(nc4n3CCN4Cc3ccco3)n(C)c2=O)cc1", "activation": "inactive: -8.2%"}
{"smiles": "CCOC(=O)C1CCCN(C(=O)Cn2cnc3c2c(=O)n(C)c(=O)n3C)C1", "note": "(stereo not drawn)", "activation": "inactive: -3.7%"}
{"smiles": "Cn1c(=O)c2ncn(CC(=O)Nc3ccc(N4CCOCC4)cc3)c2n(C)c1=O", "activation": "inactive: 8.5%"}
{"smiles": "O=C(C1CCCN1S(=O)(=O)c1cccc2cccnc12)N1CCn2c1nc1ccccc12", "note": "(stereo not drawn)", "activation": "inactive: 1.4%"}
{"smiles": "c1ccc(-c2nn[nH]n2)c(-c2nn[nH]n2)c1", "activation": "inactive: 5.7%"}
{"smiles": "O=C(Cn1c(-c2ccco2)nc2ccccc21)N1CCCCC1", "activation": "inactive: -0.6%"}
{"smiles": "S=C(Nc1ccccc1)N1CCn2c1nc1ccccc12", "activation": "inactive: -2.4%"}
{"smiles": "COc1cccc(/C=N/NC(=O)Cn2cnc3c2c(=O)n(C)c(=O)n3C)c1", "activation": "inactive: -2.8%"}
{"smiles": "c1ccc(CN2CCN(CCN3CCn4c3nc3ccccc34)CC2)cc1", "activation": "inactive: 5.7%"}
{"smiles": "Cc1nc2ccccc2n1C1CC(=O)N(Cc2ccccc2)C1=O", "note": "(stereo not drawn)", "activation": "inactive: 0.5%"}
{"smiles": "CC(c1ccccc1)N1CCn2c(nc3cc(NS(C)(=O)=O)ccc32)C1", "note": "(stereo not drawn)", "activation": "inactive: -1.7%"}
{"smiles": "COc1cc(/C=N/NC(=O)Cn2cnc3c2c(=O)n(C)c(=O)n3C)ccc1O", "activation": "inactive: 1.8%"}
{"smiles": "CCSc1nc2ccccc2n1CC(=O)N1CCOCC1", "activation": "inactive: -0.2%"}
{"smiles": "COc1cccc(NC(=O)[C@H](C)NC(=O)N2CCn3c2nc2ccccc23)c1", "activation": "inactive: 1.3%"}
{"smiles": "O=C(NC1CCS(=O)(=O)C1)NP(=S)(Oc1ccccc1)Oc1ccccc1", "note": "(stereo not drawn)", "activation": "inactive: -1.8%"}
{"smiles": "CCNC(=S)/N=C(\\N)N[N+](=O)[O-]", "activation": "inactive: -2.8%"}
{"smiles": "CC(O)CNc1nc2ccccc2n1CC(=O)NCCc1ccc(Cl)cc1", "note": "(stereo not drawn)", "activation": "inactive: -5.8%"}
{"smiles": "CC(NC(=O)CCNC(=O)N1CCn2c1nc1ccccc12)c1ccccc1", "note": "(stereo not drawn)", "activation": "inactive: -3.7%"}
{"smiles": "CC1Cc2ccccc2N1C(=O)Cn1cnc2c1c(=O)n(C)c(=O)n2C", "note": "(stereo not drawn)", "activation": "inactive: -1.1%"}
{"smiles": "O=C(Nc1nc2ccccc2n1CCN1CCCCC1)C1CCCCC1", "activation": "inactive: 0.3%"}
{"smiles": "Cc1ccc(-c2csc(NCCn3c(C(F)(F)F)nc4ccccc43)n2)cc1", "activation": "inactive: -2.3%"}
{"smiles": "Cn1c(=O)c2c(nc(CN3CCN(C(=O)c4ccco4)CC3)n2CC(N)=O)n(C)c1=O", "activation": "inactive: 0.4%"}
{"smiles": "COc1ccccc1C(=O)Nc1ccc2c(c1)nc1n2CCN(C2CCCCC2)C1", "activation": "inactive: 5.4%"}
{"smiles": "CCC(=O)Nc1cccc(C(=O)/C=C/c2cc(Br)ccc2OC)c1", "activation": "inactive: -1.4%"}
{"smiles": "O=C(Cn1c(-c2cscn2)nc2ccccc21)Nc1ccccc1F", "activation": "inactive: 0.5%"}
{"smiles": "O=C(Nc1nc2ccccc2n1CCN1CCCCC1)c1ccco1", "activation": "inactive: 9.9%"}
{"smiles": "O=S(=O)(c1ccccc1)c1nnn2c1nc(NC1CCN(Cc3ccccc3)CC1)c1ccccc12", "activation": "inactive: -2.9%"}
{"smiles": "CCCS(=O)(=O)N1CCn2c(nc3ccccc32)C1", "activation": "inactive: 8.3%"}
{"smiles": "CC(=O)NC(C)c1nc2ccccc2n1CC(=O)N1C(C)CCCC1C", "note": "(stereo not drawn)", "activation": "inactive: -4.7%"}
{"smiles": "Cc1ccc(CN2C(=O)c3ccccc3NC23CCN(Cc2ccccc2)CC3)cc1", "activation": "inactive: 5%"}
{"smiles": "CC(C)NC(=O)Cn1c(SCC(=O)N2c3ccccc3CC2C)nc2ccccc21", "note": "(stereo not drawn)", "activation": "inactive: -5.8%"}
{"smiles": "O=C(c1ccc(Cl)cc1)N1CCn2c1nc1ccccc12", "activation": "inactive: -3.7%"}
{"smiles": "CCOC(=O)CSc1nc2ccccc2n1CC(=O)N(C(C)C)C(C)C", "activation": "inactive: 4.1%"}
{"smiles": "Cn1c(=O)c2c(ncn2CC(=O)N2CCN(C(=O)c3ccco3)CC2)n(C)c1=O", "activation": "inactive: -2.4%"}
{"smiles": "O=S(=O)(c1ccccc1)N1CCn2c(nc3ccccc32)C1", "activation": "inactive: -1.2%"}
{"smiles": "COc1ccc(NS(=O)(=O)c2cc(NC(=O)Cn3cnc4c3c(=O)n(C)c(=O)n4C)ccc2C)cc1", "activation": "inactive: 0.3%"}
